Target: T1, full-length B-Catenin (Uniprot ID P35222) (Homo sapiens, UniProt P35222)
T1 construct: 10 nM full-length B-Catenin (Uniprot ID P35222)
Assay: biochemical
Type: binding
Conditions: beta-Catenin FP IC50 (nM), competition fluorescence polarization

The chains behind the UniProt entries cited, without tags or fusion partners.
UniProt P35222, whole entry: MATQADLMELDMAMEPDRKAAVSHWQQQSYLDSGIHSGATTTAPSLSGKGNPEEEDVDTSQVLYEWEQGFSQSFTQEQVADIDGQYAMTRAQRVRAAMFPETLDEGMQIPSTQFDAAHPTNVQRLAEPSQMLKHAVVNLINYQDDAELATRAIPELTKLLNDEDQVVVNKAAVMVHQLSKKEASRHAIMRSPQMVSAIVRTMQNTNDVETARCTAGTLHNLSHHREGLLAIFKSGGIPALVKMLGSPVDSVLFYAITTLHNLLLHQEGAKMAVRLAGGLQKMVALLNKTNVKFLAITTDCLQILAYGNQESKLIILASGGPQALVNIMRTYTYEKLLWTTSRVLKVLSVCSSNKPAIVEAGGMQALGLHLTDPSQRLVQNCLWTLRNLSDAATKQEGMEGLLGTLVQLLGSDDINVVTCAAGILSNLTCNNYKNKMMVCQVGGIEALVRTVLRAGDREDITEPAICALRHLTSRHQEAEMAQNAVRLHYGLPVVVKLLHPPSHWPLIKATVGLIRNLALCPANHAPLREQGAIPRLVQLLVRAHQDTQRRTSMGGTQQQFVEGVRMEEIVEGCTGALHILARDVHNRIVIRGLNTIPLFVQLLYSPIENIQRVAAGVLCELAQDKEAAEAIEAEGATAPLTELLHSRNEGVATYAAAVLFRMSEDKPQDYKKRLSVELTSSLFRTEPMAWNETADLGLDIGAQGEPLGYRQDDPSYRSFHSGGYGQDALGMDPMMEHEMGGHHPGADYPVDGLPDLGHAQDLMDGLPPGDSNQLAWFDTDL

Row | Compound | IC50 [nM]
1 | CC(=O)N1CCC[C@]12CC=CCCCC1(CCCC=CCCCOC(=O)N3CC[C@@]4(C3)NC(=O)[C@H](CCC(=O)NCCCC[C@@H](C(N)=O)NC(=O)[C@H](Cc3csc5ccccc35)NC(=O)[C@H](Cc3ccccc3)NC4=O)NC(=O)[C@H](Cc3ccccc3)NC(=O)[C@H](C)NC(=O)[C@H](CCCCNC(C)C)NC(=O)[C@H]([C@@H](C)O)NC(=O)[C@H](CC(=O)O)NC1=O)NC(=O)[C@H](CC1CCCCC1)NC(=O)[C@H](CC(N)=O)NC2=O (relative stereo) [I-150, Ac-PL3-Asn-Cha-B5-Asp-Thr-iPrLys-Ala-Phe-GlnR*3-PyrS2-Phe-BztA-Lys*3-NH2] | > 1000
2 | CC(=O)N1CCC[C@]12CCCCCCC1(CCCCCCCCOC(=O)N3CC[C@@]4(C3)NC(=O)[C@H](CCC(=O)NCCCC[C@@H](C(N)=O)NC(=O)[C@H](Cc3csc5ccccc35)NC(=O)[C@H](Cc3ccccc3)NC4=O)NC(=O)[C@H](Cc3ccccc3)NC(=O)[C@H](C)NC(=O)[C@H](CCCCNC(C)C)NC(=O)[C@H](CCC(N)=O)NC(=O)[C@H](CC(=O)O)NC1=O)NC(=O)[C@H](CC1CCCCC1)NC(=O)[C@H](CC(N)=O)NC2=O (relative stereo) [I-154, Ac-PL3-Asn-Cha-B5-Asp-Gln-iPrLys-Ala-Phe-GlnR*3-PyrS2-Phe-BztA-Lys*3-NH2] | > 1000
3 | CC(=O)N1CCC[C@]12CC=CCCCC1(CCCC=CCCCOC(=O)N3CC[C@@]4(C3)NC(=O)[C@H](CCCCNC(=O)CC[C@@H](C(=O)N[C@@H](C)C(N)=O)NC(=O)[C@H](Cc3csc5ccccc35)NC(=O)[C@H](Cc3ccsc3)NC4=O)NC(=O)[C@H](Cc3ccccc3)NC(=O)[C@H](CCCC(=O)O)NC(=O)C(C)(C)NC(=O)[C@H](Cc3cccc(C(=O)O)c3)NC(=O)[C@H](CC(=O)O)NC1=O)NC(=O)[C@H](CC(C)(C)C)NC(=O)[C@H](CC(=O)O)NC2=O (relative stereo) [I-525, Ac-PL3-Asp-Npg-B5-Asp-3COOHF-Aib-Aad-Phe-Lys*3-PyrS2-3Thi-BztA-GlnR*3-Ala-NH2] | < 50
4 | CC(=O)NCCCC[C@@H]1NC(=O)C(C)(C)NC(=O)[C@H](Cc2cccc(C(=O)O)c2)NC(=O)[C@H](CC(=O)O)NC(=O)C2(CCCC=CCCCOC(=O)N3CC[C@@]4(C3)NC(=O)[C@H](CCCCNC(=O)CC[C@@H](C(=O)N[C@@H](C)C(N)=O)NC(=O)[C@H](Cc3csc5ccccc35)NC(=O)[C@H](Cc3ccsc3)NC4=O)NC(=O)[C@H](Cc3ccccc3)NC1=O)CCCC=CC[C@]1(CCCN1C(C)=O)C(=O)N[C@@H](CC(=O)O)C(=O)N[C@@H](CC(C)(C)C)C(=O)N2 (relative stereo) [I-534, Ac-PL3-Asp-Npg-B5-Asp-3COOHF-Aib-AcLys-Phe-Lys*3-PyrS2-3Thi-BztA-GlnR*3-Ala-NH2] | < 50

Other lines, results leading:

Row | IC50 [nM] | Compound
5 | > 1000 | CC(=O)N1CCC[C@]12CCCCCCC1(CCCCCCCCOC(=O)N3CC[C@@]4(C3)NC(=O)[C@H](CCCCNC(=O)CC[C@@H](C(=O)N[C@@H](C)C(N)=O)NC(=O)[C@H](Cc3csc5ccccc35)NC(=O)[C@H](Cc3ccsc3)NC4=O)NC(=O)[C@H](Cc3ccccc3)NC(=O)[C@H](C)NC(=O)C(C)(C)NC(=O)[C@H](Cc3cccc(C(=O)O)c3)NC(=O)[C@H]([C@H](C)O)NC1=O)NC(=O)[C@H](CC(C)(C)C)NC(=O)[C@H](CC(=O)O)NC2=O (relative stereo) [I-181, Ac-PL3-Asp-Npg-B5-aThr-3COOHF-Aib-Ala-Phe-Lys*3-PyrS2-3Thi-BztA-GlnR*3-Ala-NH2]
6 | > 1000 | CC(=O)N1CCC[C@]12CC=CCCCC1(CCCC=CCCCOC(=O)N3CC[C@@]4(C3)NC(=O)[C@H](CCCCNC(=O)CC[C@@H](C(=O)N[C@@H](C)C(N)=O)NC(=O)[C@H](Cc3csc5ccccc35)NC(=O)[C@H](Cc3ccsc3)NC4=O)NC(=O)[C@@H]([C@@H](C)c3c(C)cccc3C)NC(=O)[C@H](C)NC(=O)C(C)(C)NC(=O)[C@H](Cc3cccc(C(=O)O)c3)NC(=O)[C@H](CC(=O)O)NC1=O)NC(=O)[C@H](CC(C)(C)C)NC(=O)[C@H](CC(=O)O)NC2=O (relative stereo) [I-605, Ac-PL3-Asp-Npg-B5-Asp-3COOHF-Aib-Ala-SbMeXylDA-Lys*3-PyrS2-3Thi-BztA-GlnR*3-Ala-NH2]
7 | > 1000 | CC(=O)N1CCC[C@]12CC=CCCCC1(CCCC=CCCCOC(=O)N3CC[C@@]4(C3)NC(=O)[C@H](CCCCNC(=O)CC[C@@H](C(=O)N[C@@H](C)C(N)=O)NC(=O)[C@H](Cc3csc5ccccc35)NC(=O)[C@H](Cc3ccsc3)NC4=O)NC(=O)[C@H](C(C)C)NC(=O)[C@H](C)NC(=O)C(C)(C)NC(=O)[C@H](Cc3cccc(C(=O)O)c3)NC(=O)[C@H](CC(=O)O)NC1=O)NC(=O)[C@H](CC(C)(C)C)NC(=O)[C@H](CC(=O)O)NC2=O (relative stereo) [I-372, Ac-PL3-Asp-Npg-B5-Asp-3COOHF-Aib-Ala-Val-Lys*3-PyrS2-3Thi-BztA-GlnR*3-Ala-NH2]

Target: beta-catenin/TCF4 interaction (Homo sapiens, UniProt P35222)
Assay: cell-based
Parameters: host or cells: HEK293
Conditions: NanoBRET Abs IC50 (uM)

Row | IC50 [µM] | Compound
8 | 1.5 to 3 | CC(=O)N1CCC[C@]12CC=CCCCC1(CCCC=CCCCOC(=O)N3CC[C@@]4(C3)NC(=O)[C@H](CCCCNC(=O)CC[C@@H](C(=O)N[C@@H](C)C(N)=O)NC(=O)[C@H](Cc3csc5ccccc35)NC(=O)[C@H](Cc3ccccc3)NC4=O)NC(=O)[C@H](Cc3ccccc3)NC(=O)[C@H](C)NC(=O)C(C)(C)NC(=O)[C@H](Cc3cccc(C(=O)O)c3)NC(=O)[C@H](CC(=O)O)NC1=O)NC(=O)[C@H](CC(C)(C)C)NC(=O)[C@H](CC(=O)O)NC2=O (single isomer, unassigned) [I-280, Ac-PL3-Asp-Npg-B5-Asp-3COOHF-Aib-Ala-Phe-Lys*3-PyrS2-Phe-BztA-GlnR*3-Ala-NH2]
9 | 3 to 10 | CC(=O)N1CCC[C@]12CC=CCCCC1(CCCC=CCCCOC(=O)N3CC[C@@]4(C3)NC(=O)[C@H](CCCCNC(=O)CC[C@@H](C(=O)N[C@@H](C)C(N)=O)NC(=O)[C@H](Cc3csc5ccccc35)NC(=O)[C@H](Cc3ccccc3C(F)(F)F)NC4=O)NC(=O)[C@H](Cc3ccccc3)NC(=O)[C@H](C)NC(=O)[C@H](C)NC(=O)[C@H](Cc3cccc(C(=O)O)c3)NC(=O)[C@H](CC(=O)O)NC1=O)NC(=O)[C@H](CC1CCCCC1)NC(=O)[C@H](CC(=O)O)NC2=O (single isomer, unassigned) [I-98, Ac-PL3-Asp-Cha-B5-Asp-3COOHF-Ala-Ala-Phe-Lys*3-PyrS2-2F3MeF-BztA-GlnR*3-Ala-NH2]

Same assay, conditions: NanoBRET Abs IC50 (uM), absolute IC50

Row | IC50 [µM] | Compound
10 | 3 to 10 | CC(=O)N1CCC[C@]12CC=CCCCC1(CCCC=CCCCOC(=O)N3CC[C@@]4(C3)NC(=O)[C@H](CCCCNC(=O)CC[C@@H](C(=O)N[C@@H](CC(C)C)C(=O)N[C@H](C(=O)N[C@@H](C)C(N)=O)[C@@H](C)O)NC(=O)[C@H](Cc3csc5ccccc35)NC(=O)[C@H](Cc3ccsc3)NC4=O)NC(=O)[C@H](Cc3ccccc3)NC(=O)[C@H](C)NC(=O)C(C)(C)NC(=O)[C@H](Cc3cccc(C(=O)O)c3)NC(=O)[C@H](CC(=O)O)NC1=O)NC(=O)[C@H](CC(C)(C)C)NC(=O)[C@H](CC(=O)O)NC2=O (single isomer, unassigned) [I-499, Ac-PL3-Asp-Npg-B5-Asp-3COOHF-Aib-Ala-Phe-Lys*3-PyrS2-3Thi-BztA-GlnR*3-Leu-Thr-Ala-NH2]
11 | < 1.5 | CC(=O)N1CCC[C@]12CC=CCCCC1(CCCC=CCCCOC(=O)N3CC[C@@]4(C3)NC(=O)[C@H](CCCCNC(=O)CC[C@@H](C(=O)N[C@H](C(=O)NC(C)(C)C(N)=O)C(C)C)NC(=O)[C@H](Cc3csc5ccccc35)NC(=O)[C@H](Cc3ccsc3)NC4=O)NC(=O)[C@H](Cc3ccccc3)NC(=O)[C@H](C)NC(=O)C(C)(C)NC(=O)[C@H](Cc3cccc(C(=O)O)c3)NC(=O)[C@H](CC(=O)O)NC1=O)NC(=O)[C@H](CC(C)(C)C)NC(=O)[C@H](CC(=O)O)NC2=O (single isomer, unassigned) [I-408, Ac-PL3-Asp-Npg-B5-Asp-3COOHF-Aib-Ala-Phe-Lys*3-PyrS2-3Thi-BztA-GlnR*3-Val-Aib-NH2]

— US20240360179A1, “STAPLED PEPTIDES AND METHODS THEREOF” (FOG PHARMACEUTICALS, INC., priority 2021, published 2024)
